Source: patent publication US7732437B2, “Use of anti-histaminics for acute reduction of elevated intracranial pressure” (Janssen Pharmaceutica, NV., priority 2001, dated 2010)

Amino acid sequences for entries named in this document (tags omitted).
UniProt P35367, whole entry: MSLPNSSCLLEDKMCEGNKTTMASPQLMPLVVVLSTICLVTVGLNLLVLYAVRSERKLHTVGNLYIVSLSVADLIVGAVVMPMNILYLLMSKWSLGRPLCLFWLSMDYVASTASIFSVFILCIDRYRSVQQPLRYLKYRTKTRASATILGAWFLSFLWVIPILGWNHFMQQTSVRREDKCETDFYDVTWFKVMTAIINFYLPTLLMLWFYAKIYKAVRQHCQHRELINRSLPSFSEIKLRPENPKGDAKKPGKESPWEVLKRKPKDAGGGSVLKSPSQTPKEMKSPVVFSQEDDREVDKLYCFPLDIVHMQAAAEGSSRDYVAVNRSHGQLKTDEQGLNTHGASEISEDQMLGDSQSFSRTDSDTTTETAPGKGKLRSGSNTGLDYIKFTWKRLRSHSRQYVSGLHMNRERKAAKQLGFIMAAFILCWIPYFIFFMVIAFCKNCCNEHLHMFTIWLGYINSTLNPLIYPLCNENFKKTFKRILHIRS

Assays:
[1] = target: human histamine H1-receptor (Homo sapiens, UniProt P35367); test: Radioligand binding, histamine H1-receptor, competitive inhibition of [3H]Pyrilamine; settings: CHO-cells transfected with the human histamine H1-receptor
[2] = test system: Sprague-Dawley rats with closed head injury; test: Closed Head Injury (CHI) model, severe head injury; assay type: in vivo, rat; settings: bolus of 1 mg/kg in 1 min, then infusion of 0.5 mg/kg/min for 44 min

Row | H1-antagonist activity (pIC50) ([1]; tested form: hydrate (1:1)) | H1-antagonist activity (pIC50) [1] | Structure (SMILES) | Decision (sequential statistical evaluation) [2] | Delta %: average change of the relative ICP from baseline over the treatment period [2] [%]
1 | 6.7 | – | Cc1nc2ccccn2c(=O)c1CCN1CCC(C2(C)c3ccccc3CCn3c2nc2ccccc23)CC1 (stereo not drawn) | – | –
2 | – | 6.5 | Cc1nc2n(C)c3ccccc3n2c(=O)c1CCN1CCC(C2c3ccccc3CCn3c2nc2ccccc23)CC1Cc1ccccc1 (single isomer, unassigned) [Compound 45] | active | −13.1
3 | – | – | Cc1nc2n(C)c3ccccc3n2c(=O)c1CCN1CCC(C2c3ccccc3CCn3c2nc2ccccc23)CC1Cc1ccccc1 (single isomer, unassigned) [Compound 9] | active | −12.4
